Measured values published in patent US20240058464A1, “COMBINATION THERAPY WITH FOR46 FOR CANCER” (Fortis Therapeutics, Inc., priority 2021, published 2024).

Legend:
CD46 expression [1] = assay: CD46 expression by RNA-sequencing in unpaired pre-treatment and post-treatment tumor biopsies; type: in vivo, human; conditions: post-treatment biopsies, RNA-seq log2-transformed normalized counts
CD46 expression [2] = assay: CD46 expression by RNA-sequencing in paired tumor biopsies before and after therapy; conditions: RNA-seq log2-transformed counts;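 also: FFPE human tumor biopsies, exome-capture RNA-seq, reads aligned to GRCh37, counts normalized for GC content, length and depth, summed per gene, log2-transformed, samples paired before versus after therapy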

## CC(=O)O[C@@]12CO[C@@H]1C[C@H](O)[C@@]1(C)C(=O)[C@H](O)C3=C(C)[C@@H](OC(=O)[C@H](O)[C@@H](NC(=O)OC(C)(C)C)c4ccccc4)C[C@@](O)([C@@H](OC(=O)c4ccccc4)[C@H]21)C3(C)C [docetaxel]
CD46 expression [1]; Non-Small Cell Lung Cancer
  CD46 expression Post: 6.13

## COc1cccc2c1C(=O)c1c(O)c3c(c(O)c1C2=O)C[C@@](O)(C(=O)CO)C[C@@H]3O[C@H]1C[C@H](N)[C@H](O)[C@H](C)O1 [doxorubicin]
CD46 expression [1]; Breast Cancer
  CD46 expression Post: 6.05

## CCCCCOC(=O)Nc1nc(=O)n([C@@H]2O[C@H](C)[C@@H](O)[C@H]2O)cc1F [capecitabine]
CD46 expression [2]; Colorectal Cancer
  CD46 expression, Post-Treatment Biopsy: 6.31

## CC(O)(CS(=O)(=O)c1ccc(F)cc1)C(=O)Nc1ccc(C#N)c(C(F)(F)F)c1 (centres unmarked) [bicalutamide]
CD46 expression [1]; Prostate Cancer
  CD46 expression Post: 6.13

## O=C1[O][Pt]2([NH][C@@H]3CCCC[C@H]3[NH]2)[O]C1=O [oxaliplatin]
CD46 expression [1]; Pancreatic Cancer
  CD46 expression Post: 5.78

## N.N.[Cl][Pt][Cl] [cisplatin]
CD46 expression [2]; Bladder Cancer
  CD46 expression, Post-Treatment Biopsy: 6.25
CD46 expression [2]; Non-Small Cell Lung Cancer
  CD46 expression, Pre-Treatment Biopsy: 6.31

## C[C@]12CC[C@H](O)CC1=CC[C@@H]1[C@@H]2CC[C@]2(C)C(c3cccnc3)=CC[C@@H]12 [abiraterone]
CD46 expression [2]; Prostate Cancer
  CD46 expression, Post-Treatment Biopsy: 6.03
